Results as given in ChEMBL document CHEMBL4229335 (Eur J Med Chem, 2018).

Assays:
[1] = tested on: PC-3; assay: Antiproliferative activity against human PC3 cells after 72 hrs by MTT assay; type: functional, cell-based
Procedure, shortened: (§1)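 MTT assay with 72 h exposure to graded concentrations in triplicate. MTT solution then DMSO were added, followed by 10 min at room temperature, with absorbance read at 490 nm. IC50 is reported as the mean of three independent experiments. 5-FU served as positive control.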

[2] = tested on: Bel-7402; assay: Antiproliferative activity against human Bel7402 cells after 72 hrs by MTT assay; type: functional, cell-based; procedure, shortened: as §1
[3] = tested on: L02; assay: Antiproliferative activity against human LO2 cells after 72 hrs by MTT assay; type: cell-based; procedure, shortened: as §1
[4] = tested on: HL-60; assay: Antiproliferative activity against human HL60 cells after 72 hrs by MTT assay; type: functional, cell-based; procedure, shortened: as §1
[5] = tested on: Bel7402/5-FU; assay: Antiproliferative activity against human Bel7402/5-FU cells after 72 hrs by MTT assay
[6] = Selectivity index, ratio of IC50 for human LO2 cells to IC50 for human Bel7402 cells

For `O=C(O)c1ccc(N(CCCl)CCCl)cc1`, the IC50 [1] was > 80 µM, the IC50 [2] was 23.9 µM and the IC50 [3] was 32.9 µM. For the same molecule, the IC50 [4] was 6.02 µM, the IC50 [5] was > 100 µM and the Ratio IC50 [6] was 1.4.
